From PMC3792221 (Biomolecules & Therapeutics, 2012)

Chains of the proteins cited; added tags and fusions are not shown.
UniProt P21396, whole entry: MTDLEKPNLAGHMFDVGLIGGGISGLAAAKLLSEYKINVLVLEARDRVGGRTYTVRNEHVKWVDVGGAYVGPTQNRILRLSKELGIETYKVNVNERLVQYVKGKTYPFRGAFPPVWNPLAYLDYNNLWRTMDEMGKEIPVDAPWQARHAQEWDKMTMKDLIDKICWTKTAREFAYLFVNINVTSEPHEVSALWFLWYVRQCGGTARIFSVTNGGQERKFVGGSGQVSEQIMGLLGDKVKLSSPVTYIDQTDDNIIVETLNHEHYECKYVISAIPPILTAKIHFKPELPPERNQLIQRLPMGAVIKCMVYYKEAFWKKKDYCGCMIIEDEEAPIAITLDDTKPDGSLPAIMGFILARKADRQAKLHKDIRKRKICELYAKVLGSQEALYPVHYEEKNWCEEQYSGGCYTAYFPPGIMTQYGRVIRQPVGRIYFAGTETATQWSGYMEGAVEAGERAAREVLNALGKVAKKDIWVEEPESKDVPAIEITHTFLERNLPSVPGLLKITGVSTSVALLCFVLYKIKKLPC

Biological target: MAO-A (rat brain mitochondrial MAO) (Rattus norvegicus, UniProt P21396)
Assay: MAO-A inhibition assay in vitro
Assay type: biochemical
Settings: IC50 value MAO-A, Table 1; 1 mM serotonin substrate

IC50: 40 µM
SMILES: CC(C)NNC(=O)c1ccncc1 [Iproniazid, iproniazid, reference compound]
